One substance from article PMC6468047, “Cannabinoid CB1 and CB2 Receptor-Mediated Arrestin Translocation: Species, Subtype, and Agonist-Dependence” (Frontiers in Pharmacology, 2019) can be followed below.

Assay [1] addresses human vasopressin receptor 2 (3HA-hV2R) (human) (UniProt P30518).
For assay [2] the target is unchanged. The source holds these as a separate data set.
Assay [3] has the same target. The source holds these as a separate data set.

For the substance Arginine vasopressin (peptide), the logEC50 of AVP for bβ-arrestin-2 translocation to the plasma membrane in cells expressing V2R (BRET, AUC of 25 min) in assay [1] was -8.3 log M. For the same substance, the logEC50 of AVP for bβ-arrestin-1 translocation to the plasma membrane in cells expressing V2R (BRET, AUC of 25 min) in assay [2] is -8.24 log M. Also, the logEC50 of AVP for hβ-arrestin-1 translocation to the plasma membrane in cells expressing V2R (BRET, AUC of 25 min) in assay [3] is -8.33 log M.
